# Molecular target: Recombinant heterodimeric HCV NS3/NS4A protease (strain 1a) (Hepatitis C virus genotype 1a, UniProt P27958)
# Protein sequences, listed by entry. Tags and fused reporters are not part of them. Residues count along the entry.
# UniProt P27958, 1027-1657: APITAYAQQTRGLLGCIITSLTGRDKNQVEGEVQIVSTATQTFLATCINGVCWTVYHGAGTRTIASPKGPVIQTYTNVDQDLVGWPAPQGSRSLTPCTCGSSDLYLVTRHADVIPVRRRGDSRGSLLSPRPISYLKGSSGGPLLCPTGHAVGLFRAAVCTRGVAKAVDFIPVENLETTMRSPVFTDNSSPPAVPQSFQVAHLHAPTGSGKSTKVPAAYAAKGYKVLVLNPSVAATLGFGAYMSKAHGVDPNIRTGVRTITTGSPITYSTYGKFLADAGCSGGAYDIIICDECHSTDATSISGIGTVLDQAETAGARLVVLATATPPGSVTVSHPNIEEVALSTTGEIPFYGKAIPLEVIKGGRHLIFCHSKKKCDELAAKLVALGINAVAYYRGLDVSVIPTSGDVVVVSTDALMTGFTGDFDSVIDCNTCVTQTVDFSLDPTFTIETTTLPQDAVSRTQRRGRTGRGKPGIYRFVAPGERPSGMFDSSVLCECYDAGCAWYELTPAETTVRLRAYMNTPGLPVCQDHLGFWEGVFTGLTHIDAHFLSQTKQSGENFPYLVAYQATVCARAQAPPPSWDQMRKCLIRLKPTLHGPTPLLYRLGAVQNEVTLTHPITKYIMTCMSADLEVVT
# UniProt P27958, 1658-1711: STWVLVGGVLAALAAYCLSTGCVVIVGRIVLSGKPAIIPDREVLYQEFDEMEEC
# Assay: Spectrophotometric assay for HCV protease inhibitory activity
# Type: biochemical
# Conditions: Table 2, range
row,Structure (SMILES),Ki [nM]
1,C=CCNC(=O)C(=O)C(CC1CCC1)NC(=O)[C@@H]1[C@@H]2[C@H](CN1C(=O)[C@@H](NC(=O)NC[C@@H](N(C)S(=O)(=O)c1ccccc1)C(C)(C)C)C(C)(C)C)C2(C)C (stereo partly shown) [Compound 11312],> 250
2,C#CCCC(NC(=O)[C@@H]1[C@@H]2[C@H](CN1C(=O)[C@@H](NC(=O)NC[C@@H](N(C)S(=O)(=O)c1ccccc1)C(C)(C)C)C(C)(C)C)C2(C)C)C(=O)C(=O)NCC=C (stereo partly shown) [Compound 11313],> 250
3,C=CCNC(=O)C(=O)C(CCCC)NC(=O)[C@@H]1[C@@H]2[C@H](CN1C(=O)[C@@H](NC(=O)NC[C@@H](N(C)S(=O)(=O)c1ccccc1)C(C)(C)C)C(C)(C)C)C2(C)C (stereo partly shown) [Compound 11314],> 250
4,CCCCC(NC(=O)[C@@H]1[C@@H]2[C@H](CN1C(=O)[C@@H](NC(=O)N[C@H](CN(C)S(=O)(=O)c1cccs1)C(C)(C)C)C1CCCCC1)C2(C)C)C(=O)C(=O)NC (stereo partly shown) [Compound 11315],≤ 75
5,CCCCC(NC(=O)[C@@H]1[C@@H]2[C@H](CN1C(=O)[C@@H](NC(=O)N[C@H](CN(C)S(=O)(=O)c1ccccn1)C(C)(C)C)C1CCCCC1)C2(C)C)C(=O)C(=O)NC (stereo partly shown) [Compound 11316],≤ 75
6,CCS(=O)(=O)N(C)C[C@@H](NC(=O)N[C@H](C(=O)N1C[C@H]2[C@@H]([C@H]1C(=O)NC(CC1CC1)C(=O)C(N)=O)C2(C)C)C1(C)CCCCC1)C(C)(C)C (stereo partly shown) [Compound 11317],≤ 75
7,C=CCNC(=O)C(=O)C(CC1CC1)NC(=O)[C@@H]1[C@@H]2[C@H](CN1C(=O)[C@@H](NC(=O)N[C@H](CN(C)S(=O)(=O)CC)C(C)(C)C)C1(C)CCCCC1)C2(C)C (stereo partly shown) [Compound 11318],≤ 75
8,C=CCNC(=O)C(=O)C(CCCC)NC(=O)[C@@H]1[C@@H]2[C@H](CN1C(=O)[C@@H](NC(=O)N[C@H](CN(C)S(=O)(=O)CC)C(C)(C)C)C1(C)CCCCC1)C2(C)C (stereo partly shown) [Compound 11319],≤ 75
9,C=CCNC(=O)C(=O)C(CCCC)NC(=O)[C@@H]1[C@@H]2[C@H](CN1C(=O)[C@@H](NC(=O)N[C@H](CN(C)S(=O)(=O)c1cccc(C#N)c1)C(C)(C)C)C(C)(C)C)C2(C)C (stereo partly shown) [Compound 11320],≤ 75
10,C=CCNC(=O)C(=O)C(CCCC)NC(=O)[C@@H]1[C@@H]2[C@H](CN1C(=O)[C@@H](NC(=O)N[C@H](CN(C)S(=O)(=O)c1ccc(C(C)=O)cc1)C(C)(C)C)C(C)(C)C)C2(C)C (stereo partly shown) [Compound 11321],≤ 75
11,C=CCNC(=O)C(=O)C(CC1CC1)NC(=O)[C@@H]1[C@@H]2[C@H](CN1C(=O)[C@@H](NC(=O)N[C@H](CN(C)S(=O)(=O)c1ccc(C(C)=O)cc1)C(C)(C)C)C(C)(C)C)C2(C)C (stereo partly shown) [Compound 11322],≤ 75
12,C=CCNC(=O)C(=O)C(CC1CC1)NC(=O)[C@@H]1[C@@H]2[C@H](CN1C(=O)[C@@H](NC(=O)N[C@H](CN(C)S(=O)(=O)c1ccc(OC)cc1OC)C(C)(C)C)C(C)(C)C)C2(C)C (stereo partly shown) [Compound 11323],≤ 75
13,C=CCNC(=O)C(=O)C(CC1CC1)NC(=O)[C@@H]1[C@@H]2[C@H](CN1C(=O)[C@@H](NC(=O)N[C@H](CN(C)S(=O)(=O)c1cc(F)ccc1C)C(C)(C)C)C(C)(C)C)C2(C)C (stereo partly shown) [Compound 11324],≤ 75
14,C=CCNC(=O)C(=O)C(CCCC)NC(=O)[C@@H]1[C@@H]2[C@H](CN1C(=O)[C@@H](NC(=O)N[C@H](CN(C)S(=O)(=O)c1ccc(OC)cc1OC)C(C)(C)C)C(C)(C)C)C2(C)C (stereo partly shown) [Compound 11325],≤ 75
15,CCS(=O)(=O)N(C)C[C@@H](NC(=O)N[C@H](C(=O)N1C[C@H]2[C@@H]([C@H]1C(=O)NC(CC1CCC1)C(=O)C(N)=O)C2(C)C)C1(C)CCCCC1)C(C)(C)C (stereo partly shown) [Compound 11326],≤ 75
16,C=CCNC(=O)C(=O)C(CCC)NC(=O)[C@@H]1[C@@H]2[C@H](CN1C(=O)[C@@H](NC(=O)N[C@H](CN(C)S(=O)(=O)CC)C(C)(C)C)C1(C)CCCCC1)C2(C)C (stereo partly shown) [Compound 11327],≤ 75
17,C=CCNC(=O)C(=O)C(CCC(F)(F)F)NC(=O)[C@@H]1[C@@H]2[C@H](CN1C(=O)[C@@H](NC(=O)N[C@H](CN(C)S(=O)(=O)CC)C(C)(C)C)C1(C)CCCCC1)C2(C)C (stereo partly shown) [Compound 11328],≤ 75
18,C#CCCC(NC(=O)[C@@H]1[C@@H]2[C@H](CN1C(=O)[C@@H](NC(=O)N[C@H](CN(C)S(=O)(=O)CC)C(C)(C)C)C1(C)CCCCC1)C2(C)C)C(=O)C(=O)NCC=C (stereo partly shown) [Compound 11329],≤ 75
19,C=CCNC(=O)C(=O)C(CC1CC1)NC(=O)[C@@H]1[C@@H]2[C@H](CN1C(=O)[C@@H](NC(=O)N[C@H](CN(C)S(=O)(=O)c1cn(C)cn1)C(C)(C)C)C(C)(C)C)C2(C)C (stereo partly shown) [Compound 11330],≤ 75
20,C=CCNC(=O)C(=O)C(CCCC)NC(=O)[C@@H]1[C@@H]2[C@H](CN1C(=O)[C@@H](NC(=O)N[C@H](CN(C)S(=O)(=O)c1cn(C)cn1)C(C)(C)C)C(C)(C)C)C2(C)C (stereo partly shown) [Compound 11331],≤ 75
21,C=CCNC(=O)C(=O)C(CC1CC1)NC(=O)[C@@H]1[C@@H]2[C@H](CN1C(=O)[C@@H](NC(=O)N[C@H](CN(C)S(=O)(=O)c1c(C)cc(C)cc1C)C(C)(C)C)C(C)(C)C)C2(C)C (stereo partly shown) [Compound 11332],75 to 250
22,C=CCNC(=O)C(=O)C(CCCC)NC(=O)[C@@H]1[C@@H]2[C@H](CN1C(=O)[C@@H](NC(=O)N[C@H](CN(C)S(=O)(=O)c1c(C)cc(C)cc1C)C(C)(C)C)C(C)(C)C)C2(C)C (stereo partly shown) [Compound 11333],75 to 250

row,Structure (SMILES),Ki [nM]
1,C=CCNC(=O)C(=O)C(CC1CC1)NC(=O)[C@@H]1[C@@H]2[C@H](CN1C(=O)[C@@H](NC(=O)N[C@H](CN(C)S(=O)(=O)c1ccc(F)cc1)C(C)(C)C)C(C)(C)C)C2(C)C (stereo partly shown) [Compound 11334],≤ 75
2,C#CCNC(=O)C(=O)C(CCCC)NC(=O)[C@@H]1[C@@H]2[C@H](CN1C(=O)[C@@H](NC(=O)N[C@H](CN(C)S(=O)(=O)CC)C(C)(C)C)C1Cc3ccccc3C1)C2(C)C (stereo partly shown) [Compound 11335],≤ 75
3,C=CCNC(=O)C(=O)C(CC1CC1)NC(=O)[C@@H]1[C@@H]2[C@H](CN1C(=O)[C@@H](NC(=O)N[C@H](CN(C)S(=O)(=O)c1cc(Cl)ccc1OC)C(C)(C)C)C(C)(C)C)C2(C)C (stereo partly shown) [Compound 11336],≤ 75
4,C=CCNC(=O)C(=O)C(CCCC)NC(=O)[C@@H]1[C@@H]2[C@H](CN1C(=O)[C@@H](NC(=O)N[C@H](CN(C)S(=O)(=O)c1cc(Cl)ccc1OC)C(C)(C)C)C(C)(C)C)C2(C)C (stereo partly shown) [Compound 11337],≤ 75
5,C=CCNC(=O)C(=O)C(CCCC)NC(=O)[C@@H]1[C@@H]2[C@H](CN1C(=O)[C@@H](NC(=O)N[C@H](CN(C)S(=O)(=O)c1ccc(Br)s1)C(C)(C)C)C(C)(C)C)C2(C)C (stereo partly shown) [Compound 11338],≤ 75
6,C=CCNC(=O)C(=O)C(CC1CC1)NC(=O)[C@@H]1[C@@H]2[C@H](CN1C(=O)[C@@H](NC(=O)N[C@H](CN(C)S(=O)(=O)c1ccc(Br)s1)C(C)(C)C)C(C)(C)C)C2(C)C (stereo partly shown) [Compound 11339],≤ 75
7,C=CCNC(=O)C(=O)C(CC1CC1)NC(=O)[C@@H]1[C@@H]2[C@H](CN1C(=O)[C@@H](NC(=O)N[C@H](CN(C)S(=O)(=O)c1ccc(OC)cc1)C(C)(C)C)C(C)(C)C)C2(C)C (stereo partly shown) [Compound 11340],≤ 75
8,C=CCNC(=O)C(=O)C(CCCC)NC(=O)[C@@H]1[C@@H]2[C@H](CN1C(=O)[C@@H](NC(=O)N[C@H](CN(C)S(=O)(=O)c1ccc(OC)cc1)C(C)(C)C)C(C)(C)C)C2(C)C (stereo partly shown) [Compound 11341],≤ 75
9,C=CCNC(=O)C(=O)C(CCCC)NC(=O)[C@@H]1[C@@H]2[C@H](CN1C(=O)[C@@H](NC(=O)N[C@H](CN(C)S(=O)(=O)c1ccc(C)cc1)C(C)(C)C)C(C)(C)C)C2(C)C (stereo partly shown) [Compound 11342],≤ 75
10,C=CCNC(=O)C(=O)C(CC1CC1)NC(=O)[C@@H]1[C@@H]2[C@H](CN1C(=O)[C@@H](NC(=O)N[C@H](CN(C)S(=O)(=O)c1cccc(F)c1)C(C)(C)C)C(C)(C)C)C2(C)C (stereo partly shown) [Compound 11343],≤ 75
11,C=CCNC(=O)C(=O)C(CCCC)NC(=O)[C@@H]1[C@@H]2[C@H](CN1C(=O)[C@@H](NC(=O)N[C@H](CN(C)S(=O)(=O)c1cccc(F)c1)C(C)(C)C)C(C)(C)C)C2(C)C (stereo partly shown) [Compound 11344],≤ 75
12,C=CCNC(=O)C(=O)C(CC1CC1)NC(=O)[C@@H]1[C@@H]2[C@H](CN1C(=O)[C@@H](NC(=O)N[C@H](CN(C)S(=O)(=O)c1ccc(C)cc1)C(C)(C)C)C(C)(C)C)C2(C)C (stereo partly shown) [Compound 11345],≤ 75
13,C=CCNC(=O)C(=O)C(CC1CC1)NC(=O)[C@@H]1[C@@H]2[C@H](CN1C(=O)[C@@H](NC(=O)N[C@H](CN(C)S(=O)(=O)c1ccccc1C)C(C)(C)C)C(C)(C)C)C2(C)C (stereo partly shown) [Compound 11346],≤ 75
14,C=CCNC(=O)C(=O)C(CCCC)NC(=O)[C@@H]1[C@@H]2[C@H](CN1C(=O)[C@@H](NC(=O)N[C@H](CN(C)S(=O)(=O)c1ccccc1C)C(C)(C)C)C(C)(C)C)C2(C)C (stereo partly shown) [Compound 11347],≤ 75
15,C=CCNC(=O)C(=O)C(CC1CC1)NC(=O)[C@@H]1[C@@H]2[C@H](CN1C(=O)[C@@H](NC(=O)N[C@H](CN(C)S(=O)(=O)c1cccc(Cl)c1)C(C)(C)C)C(C)(C)C)C2(C)C (stereo partly shown) [Compound 11348],≤ 75
16,C=CCNC(=O)C(=O)C(CCCC)NC(=O)[C@@H]1[C@@H]2[C@H](CN1C(=O)[C@@H](NC(=O)N[C@H](CN(C)S(=O)(=O)c1cccc(Cl)c1)C(C)(C)C)C(C)(C)C)C2(C)C (stereo partly shown) [Compound 11349],≤ 75
17,C=CCNC(=O)C(=O)C(CC1CC1)NC(=O)[C@@H]1[C@@H]2[C@H](CN1C(=O)[C@@H](NC(=O)N[C@H](CN(C)S(=O)(=O)c1ccccc1Cl)C(C)(C)C)C(C)(C)C)C2(C)C (stereo partly shown) [Compound 11350],≤ 75
18,C=CCNC(=O)C(=O)C(CCCC)NC(=O)[C@@H]1[C@@H]2[C@H](CN1C(=O)[C@@H](NC(=O)N[C@H](CN(C)S(=O)(=O)c1ccccc1Cl)C(C)(C)C)C(C)(C)C)C2(C)C (stereo partly shown) [Compound 11351],≤ 75
19,C=CCNC(=O)C(=O)C(CC1CC1)NC(=O)[C@@H]1[C@@H]2[C@H](CN1C(=O)[C@@H](NC(=O)N[C@H](CN(C)S(=O)(=O)c1ccc(F)cc1F)C(C)(C)C)C(C)(C)C)C2(C)C (stereo partly shown) [Compound 11352],≤ 75
20,C=CCNC(=O)C(=O)C(CCCC)NC(=O)[C@@H]1[C@@H]2[C@H](CN1C(=O)[C@@H](NC(=O)N[C@H](CN(C)S(=O)(=O)c1ccc(F)cc1F)C(C)(C)C)C(C)(C)C)C2(C)C (stereo partly shown) [Compound 11353],≤ 75
21,C=CCNC(=O)C(=O)C(CCCC)NC(=O)[C@@H]1[C@@H]2[C@H](CN1C(=O)[C@@H](NC(=O)N[C@H](CN(C)S(=O)(=O)c1ccccc1)C(C)(C)C)C1CCCCC1)C2(C)C (stereo partly shown) [Compound 11354],≤ 75

# Reference: patent US7759499B2, “Compounds as inhibitors of hepatitis C virus NS3 serine protease” (Schering Corporation, priority 2004, dated 2010)
